What was measured:
Assay in all cases: In vitro cell viability combination assay (CellTiter-Glo)
Conditions in all cases: agent combined with MLN4924, vehicle DMSO, 96 hr
NCI-H82 = test system: NCI-H82
NCI-H69 = assay type: cell-based
Excerpt: After normalization, the controls are discarded.
Otherwise, the classification is “Additivity”.

NCI-H209 = test system: NCI-H209

O=C1[O][Pt]2([NH][C@@H]3CCCC[C@H]3[NH]2)[O]C1=O [oxaliplatin]
Combination Index (NCI-H82): 0.85 ± 0.07 | Combination Index (NCI-H69): 0.69 ± 0.1 | Combination Index (NCI-H209): 1.12 ± 0.08

— patent US10786505B2, “Administration of NEDD8-activating enzyme inhibitor and chemotherapeutic agents” (Millennium Pharmaceuticals, Inc., priority 2013, dated 2020)
